Measured values published in patent US20140234420A1, “Method of Treating Skin Disorders using Nanoscale Delivery Devices and Transdermal Enhancing Compositions” (priority 2008, published 2014).

Assay: Encapsulation (entrapment) efficiency
Type: physicochemical
Details: drug encapsulated in zein/lecithin/squalene nanoemulsions
Procedure: Detection wavelength: 340 nm; Injection volume: 50 μl: Run time: 10 min. […] The resulting solution was centrifuged at 5000 rpm for 5 min. […] The resulting solution was centrifuged 5000 rpm for 5 min. […] Further the size was much more uniform in case of nanoemulsions as evidenced from the low polydispersity index (PDI). The zeta potential was high in case of nanoemulsions signifying the high physical stability of these nanocarriers. […] In vitro release of MTX from the formulations in phosphate buffer (pH 7.4) was studied using UV-spectrophotometry. […] Benzoyl peroxide content was measured using HPLC.

## CC1=C(/C=C/C(C)=C/C=C/C(C)=C/C(=O)O)C(C)(C)CCC1 [Retinoic acid]
  % EE: 81.4 ± 2.45%
